Measured values published in PMC9133036, “Molecular mechanism of the wake-promoting agent TAK-925” (Nature Communications, 2022).

Sequences of proteins named here, by UniProt entry; tags and fusion partners are left off. Residues count along the entry.
UniProt O43614, 1-406: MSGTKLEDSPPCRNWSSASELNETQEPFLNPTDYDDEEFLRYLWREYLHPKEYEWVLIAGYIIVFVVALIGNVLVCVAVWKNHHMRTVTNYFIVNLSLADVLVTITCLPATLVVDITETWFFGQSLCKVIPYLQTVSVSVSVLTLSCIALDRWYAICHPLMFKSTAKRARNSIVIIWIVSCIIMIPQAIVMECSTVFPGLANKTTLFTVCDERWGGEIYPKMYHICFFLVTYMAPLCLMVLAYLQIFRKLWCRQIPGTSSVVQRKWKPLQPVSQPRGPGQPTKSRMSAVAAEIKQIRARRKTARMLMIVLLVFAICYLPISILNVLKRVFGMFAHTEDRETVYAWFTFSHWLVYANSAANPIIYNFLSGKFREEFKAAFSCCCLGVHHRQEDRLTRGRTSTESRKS
UniProt O43614, whole entry V114A: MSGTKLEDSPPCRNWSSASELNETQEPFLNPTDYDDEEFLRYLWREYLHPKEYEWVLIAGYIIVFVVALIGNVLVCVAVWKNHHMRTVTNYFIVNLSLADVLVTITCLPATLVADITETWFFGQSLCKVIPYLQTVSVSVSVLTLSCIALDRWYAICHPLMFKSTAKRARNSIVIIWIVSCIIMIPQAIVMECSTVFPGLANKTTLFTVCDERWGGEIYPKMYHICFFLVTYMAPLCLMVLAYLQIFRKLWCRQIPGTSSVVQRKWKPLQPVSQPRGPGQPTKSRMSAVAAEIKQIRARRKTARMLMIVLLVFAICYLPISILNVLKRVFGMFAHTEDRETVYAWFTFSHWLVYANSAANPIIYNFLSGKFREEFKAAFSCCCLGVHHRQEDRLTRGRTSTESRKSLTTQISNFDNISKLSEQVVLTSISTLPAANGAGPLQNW
UniProt O43614, whole entry W120A: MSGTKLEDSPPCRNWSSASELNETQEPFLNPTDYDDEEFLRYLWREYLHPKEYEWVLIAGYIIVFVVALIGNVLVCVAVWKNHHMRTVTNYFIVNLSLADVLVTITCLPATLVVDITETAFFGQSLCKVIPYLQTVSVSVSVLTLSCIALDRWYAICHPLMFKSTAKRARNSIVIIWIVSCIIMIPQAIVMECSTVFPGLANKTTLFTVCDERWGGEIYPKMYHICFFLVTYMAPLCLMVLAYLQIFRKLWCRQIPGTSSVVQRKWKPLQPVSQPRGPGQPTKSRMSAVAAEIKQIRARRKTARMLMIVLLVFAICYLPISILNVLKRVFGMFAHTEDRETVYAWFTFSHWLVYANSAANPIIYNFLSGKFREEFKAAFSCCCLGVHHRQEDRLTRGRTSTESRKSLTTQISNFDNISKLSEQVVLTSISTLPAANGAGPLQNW
UniProt O43614, whole entry Q187A: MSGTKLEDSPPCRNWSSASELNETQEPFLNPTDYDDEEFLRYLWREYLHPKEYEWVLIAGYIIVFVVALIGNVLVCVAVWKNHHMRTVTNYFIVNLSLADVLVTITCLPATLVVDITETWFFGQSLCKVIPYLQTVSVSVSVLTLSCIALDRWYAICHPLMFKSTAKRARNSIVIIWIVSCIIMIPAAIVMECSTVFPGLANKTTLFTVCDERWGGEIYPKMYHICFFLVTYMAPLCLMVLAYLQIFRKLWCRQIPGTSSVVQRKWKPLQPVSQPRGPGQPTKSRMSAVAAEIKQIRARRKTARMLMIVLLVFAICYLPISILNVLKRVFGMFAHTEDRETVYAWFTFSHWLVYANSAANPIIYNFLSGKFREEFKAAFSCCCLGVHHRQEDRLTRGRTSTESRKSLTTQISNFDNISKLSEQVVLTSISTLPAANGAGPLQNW
UniProt O43614, whole entry F227A: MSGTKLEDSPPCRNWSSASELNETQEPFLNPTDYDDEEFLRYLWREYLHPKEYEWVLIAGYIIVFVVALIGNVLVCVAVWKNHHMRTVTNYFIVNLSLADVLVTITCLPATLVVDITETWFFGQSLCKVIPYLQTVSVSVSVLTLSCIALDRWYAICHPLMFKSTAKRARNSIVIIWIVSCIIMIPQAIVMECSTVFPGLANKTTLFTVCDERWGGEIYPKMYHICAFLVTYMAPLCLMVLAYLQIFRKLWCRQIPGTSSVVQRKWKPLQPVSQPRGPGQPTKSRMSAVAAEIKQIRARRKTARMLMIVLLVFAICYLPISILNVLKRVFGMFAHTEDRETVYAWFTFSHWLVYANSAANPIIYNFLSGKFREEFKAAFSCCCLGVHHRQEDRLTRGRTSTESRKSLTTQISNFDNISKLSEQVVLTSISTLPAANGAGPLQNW
UniProt O43614, whole entry F228A: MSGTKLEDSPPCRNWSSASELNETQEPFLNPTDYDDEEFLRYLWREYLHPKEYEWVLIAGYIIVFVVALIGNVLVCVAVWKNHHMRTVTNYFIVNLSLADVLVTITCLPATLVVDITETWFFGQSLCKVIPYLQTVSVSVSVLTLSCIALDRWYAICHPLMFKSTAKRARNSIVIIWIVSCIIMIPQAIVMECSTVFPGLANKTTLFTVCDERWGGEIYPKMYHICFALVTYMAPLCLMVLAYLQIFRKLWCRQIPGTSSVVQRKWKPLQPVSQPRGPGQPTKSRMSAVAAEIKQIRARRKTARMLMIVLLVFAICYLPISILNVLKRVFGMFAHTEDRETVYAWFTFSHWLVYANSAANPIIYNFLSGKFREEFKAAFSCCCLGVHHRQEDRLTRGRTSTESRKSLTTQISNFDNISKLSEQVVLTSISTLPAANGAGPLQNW
UniProt O43614, whole entry Y232A: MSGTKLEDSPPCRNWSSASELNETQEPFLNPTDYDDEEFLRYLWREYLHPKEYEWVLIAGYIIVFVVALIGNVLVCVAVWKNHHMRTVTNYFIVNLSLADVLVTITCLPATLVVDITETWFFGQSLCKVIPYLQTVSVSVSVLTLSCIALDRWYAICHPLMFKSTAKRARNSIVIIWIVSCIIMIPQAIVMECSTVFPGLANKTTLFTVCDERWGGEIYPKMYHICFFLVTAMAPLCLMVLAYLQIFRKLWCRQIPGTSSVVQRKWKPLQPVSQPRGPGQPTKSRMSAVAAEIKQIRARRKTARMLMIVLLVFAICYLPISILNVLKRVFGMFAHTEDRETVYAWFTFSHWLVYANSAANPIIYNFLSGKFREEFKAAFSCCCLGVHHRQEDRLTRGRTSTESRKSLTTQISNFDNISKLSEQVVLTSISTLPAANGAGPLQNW
UniProt O43614, whole entry Y317A: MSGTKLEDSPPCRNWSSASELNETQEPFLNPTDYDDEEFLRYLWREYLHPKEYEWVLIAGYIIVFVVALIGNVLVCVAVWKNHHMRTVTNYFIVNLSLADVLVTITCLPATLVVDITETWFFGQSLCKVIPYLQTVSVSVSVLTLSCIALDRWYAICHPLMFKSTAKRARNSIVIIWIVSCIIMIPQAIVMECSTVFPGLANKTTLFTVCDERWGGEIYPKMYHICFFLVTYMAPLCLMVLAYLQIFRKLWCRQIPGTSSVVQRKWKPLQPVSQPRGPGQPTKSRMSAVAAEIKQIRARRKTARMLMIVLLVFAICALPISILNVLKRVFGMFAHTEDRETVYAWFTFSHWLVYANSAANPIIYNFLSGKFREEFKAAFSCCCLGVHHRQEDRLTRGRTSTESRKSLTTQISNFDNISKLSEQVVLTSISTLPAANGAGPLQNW
UniProt O43614, whole entry K327A: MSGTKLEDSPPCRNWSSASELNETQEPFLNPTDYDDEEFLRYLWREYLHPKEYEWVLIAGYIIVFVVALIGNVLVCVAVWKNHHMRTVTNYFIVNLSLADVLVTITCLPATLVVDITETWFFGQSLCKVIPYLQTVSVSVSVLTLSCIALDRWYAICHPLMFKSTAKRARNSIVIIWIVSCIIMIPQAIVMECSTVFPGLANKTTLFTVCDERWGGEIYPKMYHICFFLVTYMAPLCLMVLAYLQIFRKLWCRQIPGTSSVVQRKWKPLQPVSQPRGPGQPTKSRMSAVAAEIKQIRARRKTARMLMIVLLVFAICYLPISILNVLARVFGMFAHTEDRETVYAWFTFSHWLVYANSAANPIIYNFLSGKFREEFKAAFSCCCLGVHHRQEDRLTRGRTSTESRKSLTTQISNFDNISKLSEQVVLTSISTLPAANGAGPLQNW
UniProt O43614, whole entry R328A: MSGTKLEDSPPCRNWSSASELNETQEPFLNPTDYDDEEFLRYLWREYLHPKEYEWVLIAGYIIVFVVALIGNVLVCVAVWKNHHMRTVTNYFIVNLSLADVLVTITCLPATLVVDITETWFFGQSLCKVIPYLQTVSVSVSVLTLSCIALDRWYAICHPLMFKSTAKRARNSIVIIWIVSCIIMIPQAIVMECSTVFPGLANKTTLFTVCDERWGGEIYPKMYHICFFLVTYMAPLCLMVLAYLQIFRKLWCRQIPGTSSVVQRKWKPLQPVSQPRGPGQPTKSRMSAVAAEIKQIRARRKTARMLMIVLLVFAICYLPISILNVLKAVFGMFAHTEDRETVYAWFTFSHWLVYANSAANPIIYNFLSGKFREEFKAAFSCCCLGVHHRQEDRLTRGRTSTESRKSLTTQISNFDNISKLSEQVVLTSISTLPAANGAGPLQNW
UniProt O43614, whole entry F346A: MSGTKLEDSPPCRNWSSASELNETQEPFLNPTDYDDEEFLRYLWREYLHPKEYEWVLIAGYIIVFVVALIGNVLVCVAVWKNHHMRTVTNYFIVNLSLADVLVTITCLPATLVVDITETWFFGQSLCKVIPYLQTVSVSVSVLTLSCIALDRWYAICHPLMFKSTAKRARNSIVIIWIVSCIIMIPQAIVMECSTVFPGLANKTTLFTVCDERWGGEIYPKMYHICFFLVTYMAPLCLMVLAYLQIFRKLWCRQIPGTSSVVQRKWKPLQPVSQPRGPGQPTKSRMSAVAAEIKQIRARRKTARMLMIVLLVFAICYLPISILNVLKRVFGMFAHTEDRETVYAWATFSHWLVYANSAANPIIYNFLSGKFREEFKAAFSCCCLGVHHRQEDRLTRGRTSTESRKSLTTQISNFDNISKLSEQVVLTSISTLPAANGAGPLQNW
UniProt O43614, whole entry H350A: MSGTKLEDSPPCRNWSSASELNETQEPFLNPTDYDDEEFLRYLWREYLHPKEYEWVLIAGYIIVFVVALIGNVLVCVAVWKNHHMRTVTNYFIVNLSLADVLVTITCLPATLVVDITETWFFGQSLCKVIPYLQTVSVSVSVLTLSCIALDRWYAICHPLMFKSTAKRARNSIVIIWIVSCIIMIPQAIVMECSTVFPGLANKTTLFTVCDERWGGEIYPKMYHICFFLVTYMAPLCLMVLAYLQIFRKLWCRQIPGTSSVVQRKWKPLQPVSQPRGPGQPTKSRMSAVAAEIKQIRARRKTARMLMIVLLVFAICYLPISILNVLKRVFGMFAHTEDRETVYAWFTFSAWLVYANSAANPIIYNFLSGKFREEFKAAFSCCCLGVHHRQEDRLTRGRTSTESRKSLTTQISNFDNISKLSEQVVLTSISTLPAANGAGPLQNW
UniProt O43614, whole entry V353A: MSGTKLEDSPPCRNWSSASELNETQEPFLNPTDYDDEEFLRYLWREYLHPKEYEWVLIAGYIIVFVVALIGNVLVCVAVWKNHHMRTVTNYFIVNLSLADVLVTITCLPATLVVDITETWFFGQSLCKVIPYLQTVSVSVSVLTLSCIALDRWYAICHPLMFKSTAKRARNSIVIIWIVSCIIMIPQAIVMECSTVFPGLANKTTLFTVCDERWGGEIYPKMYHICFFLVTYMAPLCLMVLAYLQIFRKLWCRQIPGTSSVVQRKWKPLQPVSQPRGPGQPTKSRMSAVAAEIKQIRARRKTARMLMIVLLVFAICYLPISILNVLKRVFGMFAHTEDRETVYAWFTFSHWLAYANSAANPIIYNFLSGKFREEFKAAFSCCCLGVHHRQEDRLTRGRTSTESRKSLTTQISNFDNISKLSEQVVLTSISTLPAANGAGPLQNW
UniProt O43614, whole entry Y354A: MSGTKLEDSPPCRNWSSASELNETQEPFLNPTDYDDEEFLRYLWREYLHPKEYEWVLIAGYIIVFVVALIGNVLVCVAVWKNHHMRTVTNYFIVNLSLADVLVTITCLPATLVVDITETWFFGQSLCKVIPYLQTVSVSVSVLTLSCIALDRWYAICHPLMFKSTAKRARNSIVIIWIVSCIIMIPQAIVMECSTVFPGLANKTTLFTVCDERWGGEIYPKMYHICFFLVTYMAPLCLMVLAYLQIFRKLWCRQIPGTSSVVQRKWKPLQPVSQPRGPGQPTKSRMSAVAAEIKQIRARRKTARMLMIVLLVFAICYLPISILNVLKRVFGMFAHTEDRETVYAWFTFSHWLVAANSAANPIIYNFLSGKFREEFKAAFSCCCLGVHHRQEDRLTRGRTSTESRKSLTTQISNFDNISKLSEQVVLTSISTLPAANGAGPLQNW

Key:
Type in all cases: cell-based
OX2R1-406 = target: T1, OX2R1-406 (Homo sapiens, UniProt O43614); test: IP accumulation assay, C-terminally truncated OX2R1-406
T1 construct: the receptor construct contained residues 1–406 of wild-type human OX2R; expressed in transfected cells; host or cells: HEK293

OX2R V114A = target: T2, OX2R V114A (Homo sapiens, UniProt O43614, V114A); test: β-arrestin PathHunter assay, OX2R V114A; conditions: β-arrestin recruitment
T2 construct: expressed in transfected cells; host or cells: CHO-K1 stably expressing EA β-arrestin2

OX2R W120A = target: T3, OX2R W120A (Homo sapiens, UniProt O43614, W120A); test: β-arrestin PathHunter assay, OX2R W120A; conditions: β-arrestin recruitment
T3 construct: expressed in transfected cells; host or cells: CHO-K1 stably expressing EA β-arrestin2

OX2R Q187A = target: T4, OX2R Q187A (Homo sapiens, UniProt O43614, Q187A); test: β-arrestin PathHunter assay, OX2R Q187A; conditions: β-arrestin recruitment
T4 construct: expressed in transfected cells; host or cells: CHO-K1 stably expressing EA β-arrestin2

OX2R F227A = target: T5, OX2R F227A (Homo sapiens, UniProt O43614, F227A); test: β-arrestin PathHunter assay, OX2R F227A; conditions: β-arrestin recruitment
T5 construct: expressed in transfected cells; host or cells: CHO-K1 stably expressing EA β-arrestin2

OX2R F228A = target: T6, OX2R F228A (Homo sapiens, UniProt O43614, F228A); test: β-arrestin PathHunter assay, OX2R F228A; conditions: β-arrestin recruitment
T6 construct: expressed in transfected cells; host or cells: CHO-K1 stably expressing EA β-arrestin2

OX2R Y232A = target: T7, OX2R Y232A (Homo sapiens, UniProt O43614, Y232A); test: β-arrestin PathHunter assay, OX2R Y232A; conditions: β-arrestin recruitment
T7 construct: expressed in transfected cells; host or cells: CHO-K1 stably expressing EA β-arrestin2

OX2R Y317A = target: T8, OX2R Y317A (Homo sapiens, UniProt O43614, Y317A); test: β-arrestin PathHunter assay, OX2R Y317A; conditions: β-arrestin recruitment
T8 construct: expressed in transfected cells; host or cells: CHO-K1 stably expressing EA β-arrestin2

OX2R K327A = target: T9, OX2R K327A (Homo sapiens, UniProt O43614, K327A); test: β-arrestin PathHunter assay, OX2R K327A; conditions: β-arrestin recruitment
T9 construct: expressed in transfected cells; host or cells: CHO-K1 stably expressing EA β-arrestin2

OX2R R328A = target: T10, OX2R R328A (Homo sapiens, UniProt O43614, R328A); test: β-arrestin PathHunter assay, OX2R R328A; conditions: β-arrestin recruitment
T10 construct: expressed in transfected cells; host or cells: CHO-K1 stably expressing EA β-arrestin2

OX2R F346A = target: T11, OX2R F346A (Homo sapiens, UniProt O43614, F346A); test: β-arrestin PathHunter assay, OX2R F346A; conditions: β-arrestin recruitment
T11 construct: expressed in transfected cells; host or cells: CHO-K1 stably expressing EA β-arrestin2

OX2R H350A = target: T12, OX2R H350A (Homo sapiens, UniProt O43614, H350A); test: β-arrestin PathHunter assay, OX2R H350A; conditions: β-arrestin recruitment
T12 construct: expressed in transfected cells; host or cells: CHO-K1 stably expressing EA β-arrestin2

OX2R V353A = target: T13, OX2R V353A (Homo sapiens, UniProt O43614, V353A); test: β-arrestin PathHunter assay, OX2R V353A; conditions: β-arrestin recruitment
T13 construct: expressed in transfected cells; host or cells: CHO-K1 cells stably expressing EA β-arrestin2 (DiscoveRX), transiently transfected with pCMV-ProLink OX2R

OX2R Y354A = target: T14, OX2R Y354A (Homo sapiens, UniProt O43614, Y354A); test: β-arrestin PathHunter assay, OX2R Y354A; conditions: β-arrestin recruitment
T14 construct: expressed in transfected cells; host or cells: CHO-K1 cells stably expressing EA β-arrestin2 (DiscoveRX), transiently transfected with pCMV-ProLink OX2R

human OX2R wild type [1] = target: T15, human OX2R wild type (Homo sapiens, UniProt O43614); test: Inositol phosphate accumulation assay for Gq signaling, OX2R WT; parameters: FLAG; expressed in transfected cells; host or cells: HEK293; conditions: IP accumulation
human OX2R wild type [2] = target: T15, human OX2R wild type; test: β-arrestin PathHunter assay, OX2R WT; parameters: expressed in transfected cells; host or cells: CHO-K1 stably expressing EA β-arrestin2; conditions: β-arrestin recruitment
OX2R Q134A = OX2R Q134A (Homo sapiens, UniProt O43614, Q134A); test: β-arrestin PathHunter assay, OX2R Q134A; parameters: expressed in transfected cells; host or cells: CHO-K1 stably expressing EA β-arrestin2; conditions: β-arrestin recruitment

orexin B
EC50 (OX2R1-406): 0.0026 µM | EC50 (OX2R V114A): 0.15 µM | EC50 (OX2R W120A): > 1 µM | pEC50 (OX2R W120A): < 6 | EC50 (OX2R Q187A): 0.029 µM | EC50 (OX2R F227A): > 1 µM | pEC50 (OX2R F227A): < 6 | EC50 (OX2R F228A): 0.013 µM | EC50 (OX2R Y232A): 0.079 µM | EC50 (OX2R Y317A): 0.12 µM | EC50 (OX2R K327A): 0.12 µM | EC50 (OX2R R328A): 0.59 µM | EC50 (OX2R F346A): 0.14 µM | EC50 (OX2R H350A): 0.2 µM | EC50 (OX2R V353A): 0.024 µM | EC50 (OX2R Y354A): 0.058 µM | EC50 (human OX2R wild type [1]): 0.0062 µM | EC50 (human OX2R wild type [2]): 0.0041 µM | EC50 (OX2R Q134A): 0.28 µM
